Results: ChEMBL document CHEMBL5154884, “Discovery of a Novel Src Homology-2 Domain Containing Protein Tyrosine Phosphatase-2 (SHP2) and Cyclin-Dependent Kinase 4 (CDK4) Dual Inhibitor for the Treatment of Triple-Negative Breast Cancer” (J Med Chem, 2022)

How the values were obtained:
Homo sapiens [1] = species: Homo sapiens; assay: Selectivity index, ratio of IC50 for inhibition of recombinant N-terminal GST/His6-fusion tagged human CDK12/Cyclin K to IC50 for inhibition of recombinant full length N-terminal GST/His6-fusion tagged human CDK9/Cyclin T1
Homo sapiens [2] = species: Homo sapiens; assay: Selectivity index, ratio of IC50 for inhibition of recombinant N-terminal GST/His6-fusion tagged human CDK2/Cyclin E2 to IC50 for inhibition of recombinant full length N-terminal GST/His6-fusion tagged human CDK9/Cyclin T1
Homo sapiens [3] = species: Homo sapiens; assay: Selectivity index, ratio of IC50 for inhibition of recombinant N-terminal GST/His6-fusion tagged human CDK3/Cyclin E to IC50 for inhibition of recombinant full length N-terminal GST/His6-fusion tagged human CDK9/Cyclin T1
Homo sapiens [4] = species: Homo sapiens; assay: Selectivity index, ratio of IC50 for inhibition of recombinant full length N-terminal GST/His6-fusion tagged human CDK5/P25 to IC50 for inhibition of recombinant full length N-terminal GST/His6-fusion tagged human CDK9/Cyclin T1
Homo sapiens [5] = species: Homo sapiens; assay: Selectivity index, ratio of IC50 for inhibition of recombinant N-terminal GST/His6-fusion tagged human CDK6/Cyclin D3 to IC50 for inhibition of recombinant full length N-terminal GST/His6-fusion tagged human CDK9/Cyclin T1
Homo sapiens [6] = species: Homo sapiens; assay: Selectivity index, ratio of IC50 for inhibition of CDK7/Cyclin H (unknown origin) to IC50 for inhibition of recombinant full length N-terminal GST/His6-fusion tagged human CDK9/Cyclin T1
Homo sapiens [7] = species: Homo sapiens; assay: Selectivity index, ratio of IC50 for inhibition of recombinant N-terminal GST/His6-fusion tagged human CDK1/Cyclin B to IC50 for inhibition of recombinant full length N-terminal GST/His6-fusion tagged human CDK9/Cyclin T1
Homo sapiens [8] = species: Homo sapiens; assay: Selectivity index, ratio of IC50 for inhibition of recombinant N-terminal GST/His6-fusion tagged human CDK13/Cyclin K to IC50 for inhibition of recombinant full length N-terminal GST/His6-fusion tagged human CDK9/Cyclin T1

Measured: Ratio IC50

Cc1nc2c(F)cc(-c3nc(Nc4nccc(Sc5cnc(N6CCC7(CC6)CO[C@@H](C)[C@H]7N)cn5)c4Cl)ncc3F)cc2n1C(C)C
> 10: Homo sapiens [1] | Homo sapiens [2] | Homo sapiens [3] | Homo sapiens [4] | Homo sapiens [5] | Homo sapiens [6] | Homo sapiens [7] | Homo sapiens [8]
